Drawing on paper PMC10618793, “Investigating cannabinoids as P2X purinoreceptor 4 ligands by using surface plasmon resonance and computational docking” (Heliyon, 2023), this text covers Kd, koff and kon for one molecule.

Where “and” joins values, the source holds several entries; their conditions need not be identical. Equal entries are not always repeated.

The experiment concerns the target T1, P2X4 receptor (Homo sapiens, UniProt Q99571).
T1 construct: His tag (N); purchased MyBioSource, Inc (San Diego, CA, USA)
T1 sequence (Q99571 77-338): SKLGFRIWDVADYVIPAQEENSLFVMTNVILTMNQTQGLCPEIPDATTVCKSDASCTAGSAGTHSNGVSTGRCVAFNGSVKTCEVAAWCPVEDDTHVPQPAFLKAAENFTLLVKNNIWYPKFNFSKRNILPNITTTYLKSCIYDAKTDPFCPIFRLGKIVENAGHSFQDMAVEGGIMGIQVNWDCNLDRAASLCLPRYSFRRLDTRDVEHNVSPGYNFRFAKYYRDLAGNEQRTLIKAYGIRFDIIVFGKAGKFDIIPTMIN
The experiment in a line: Surface plasmon resonance binding screening assay. The settings on record: SPR Biacore T200, P2X4 immobilized on CM5 chip, 0.4-300 μM, 1:1 binding model, n.d. = not detectable. On the technique in general: Surface plasmon resonance follows binding to a sensor surface in real time, without labels.

The Kd is the free concentration of one partner at which half of the binding sites on the other are occupied at equilibrium, for simple one-to-one binding. The low end stands for tighter binding, the high end for weaker binding. A word on the koff: it is the first-order rate constant of dissociation. As a reminder, the kon is the rate constant with which the complex forms. As for `CCCc1cc(O)c(C/C=C(\C)CCC=C(C)C)c(O)c1` [CBGV, cannabigerovarin], the Kd (KD (equilibrium dissociation constant)) was 3.1 µM and 3.11 µM. Besides, the koff (read-out: Koff (dissociation rate)) was 0.0263 s⁻¹. Besides, where the note is “read-out: Kon (association rate)”, the kon turned out to be 8450 M⁻¹ s⁻¹.
